Earlier results on 1 compound are cited in paper PMC8548585, “Triazolopyrimidine herbicides are potent inhibitors of Aspergillus fumigatus acetohydroxyacid synthase and potential antifungal drug leads” (Scientific Reports, 2021).

The test system of this data set is ScAHAS. The following applies: read-out: KM for pyruvate; cited from earlier work.

As to `CC(=O)C(=O)O`, the Km – broadly, the substrate concentration at which the rate is half of its maximum – was 3.6 mM.
